This experiment deals with clone M28.10B. As to the kind of experiment: TNF-release assay: Melan-A-specific TIL clone co-cultured with peptide-loaded HLA-B*3501 EBV cells. The class given is cell-based. The following applies: EBV cells expressing HLA-B*3501 loaded with 10 μM peptide, 6 hours co-culture.

On to AAGIGILTV [Melan-A peptide 27-35], for which the TNF was found to be 4 pg/mL.
